# Results from ChEMBL document CHEMBL6083227, “Novel sulfonamides unveiled as potent anti-lung cancer agents via tumor pyruvate kinase M2 activation” (RSC Med Chem, 2024).
# Assays:
# BEAS-2B = experiment: Antiproliferative activity against human BEAS-2B cells incubated for 48 hrs by Alamar blue staining based assay
# A549 = experiment: Antiproliferative activity against human A549 cells incubated for 48 hrs by Alamar blue staining based assay; details: A549, 48 h
Structure (SMILES),IC50 (A549),IC50 (BEAS-2B)
O=C(CN1CCN(S(=O)(=O)c2ccc(Br)cc2)CC1)c1cnc2ccccn12,1.74 µM,64.2 µM
N#Cc1ccccc1S(=O)(=O)N1CCN(CC(=O)c2cnc3ncccn23)CC1,1.72 µM,46.3 µM
O=C(CN1CCN(S(=O)(=O)c2ccc(Cl)s2)CC1)c1cnc2ncccn12,1.75 µM,9.29 µM
COc1ccc(Br)cc1S(=O)(=O)N1CCN(CC(=O)c2cnc3ncccn23)CC1,1.54 µM,39.1 µM
Cc1ccc(S(=O)(=O)N2CCN(CC(=O)c3cnc4ccccn34)CC2)cc1,1.67 µM,51.1 µM

# Now those with a lower IC50 (A549), led by results:
IC50 (A549),Structure (SMILES),IC50 (BEAS-2B)
1.48 µM,COc1ccc(S(=O)(=O)N2CCN(CC(=O)c3cnc4ncccn34)CC2)cc1,28.4 µM
1.48 µM,O=C(CN1CCN(S(=O)(=O)c2ccc(F)cc2)CC1)c1cnc2ncccn12,20 µM
1.47 µM,O=C(CN1CCN(S(=O)(=O)c2cccs2)CC1)c1cnc2ncccn12,45 µM
1.33 µM,O=C(CN1CCN(S(=O)(=O)c2ccc(Br)cc2)CC1)c1cnc2ncccn12,20.8 µM
1.32 µM,O=C(CN1CCN(S(=O)(=O)c2ccc(Cl)s2)CC1)c1cnc2ccccn12,48.9 µM
1.24 µM,O=C(CN1CCN(S(=O)(=O)C2CC2)CC1)c1cnc2ccccn12,50.5 µM
1.06 µM,Cc1cc(C)c(S(=O)(=O)N2CCN(CC(=O)c3cnc4ncccn34)CC2)c(C)c1,51.4 µM
